Here are results for 4 compounds from patent publication US20050227994A1, “Decomposition inhibitor for extracellular matrix of cartilage” (Shionogi & Co., Ltd., priority 2002, published 2005).

pIC50: −log10 of the molar value.

For experiment [1], the system named is cartilage disks of juvenile rabbits, IL-1 stimulated GAG release. As to the kind of experiment: Cartilage culture test (IL-1 induced GAG release). Conditions: rabbit cartilage disks, IL-1 (4 ng/ml) plus test compound, released GAG after 4 days. How it is done: Cartilage disks (2 mm in diameter) were prepared from the cartilage of juvenile rabbits (3 weeks). Cartilage disks were transferred and cultured individually in the wells of a 48-well tissue culture plate containing DMEM/10% FCS for over 3 days at 37° C. In the night before the test, the medium of DMEM was changed to that not containing FCS. Next morning, IL-1 (4 ng/ml) and a test compound were added to the plate. It is provided that some wells of a plate contain only IL-1 (not containing test compound) and that some wells are vehicle (not containing IL-1 and test compound). After 4 days from the IL-1 addition, the amount of released glycosaminoglycan (GAG) was measured after collecting culture supernatant and cartilage disks.
Quantitation of GAG release was as follows; the weight of the cartilage disk was measured, then 200 μl of a papain digestion buffer solution (1 mM EDTA, 2 mM DTT, 20 mM Tris, (pH 7.0), Papain (300 μg/ml)) was added to each well and the plate containing the digestive solution was incubated for 2 h at 65° C. 50 μl of 100 mM Iodoacetatic acid (pH 7.0) was added for stopping the digestion. The extracts of cartilage are centrifuged at 12000 rpm for 5 min. 20 μl of centrifuged supernatant or culture supernatant was transferred in the wells of a 96-well assay plate. The amount of released GAG in the transferred solution was quantitated by using a proteoglycan & glycosaminoglycan assay kit (Blyscan, Funakoshi Co., Ltd, Tokyo, Japan).

Experiment [2] addresses MMP-13 (Homo sapiens, UniProt P45452). The experiment can be described thus: Assay for inhibitory activities on MMP-13. The conditions noted are these: read-out: MMP-13 (IC50μM); catalytic domain, substrate MOCAc-Pro-Leu-Gly-Leu-A2Pr(DNP)-Ala-Arg-NH2.

With `O=C(O)[C@@H](Cc1ccccc1)NS(=O)(=O)c1ccc(-c2ccon2)s1`, the GAG in experiment [1] came to 47.6. For the same compound, in experiment [2], the pIC50 is 5.96.
Regarding `O=C(O)[C@@H](Cc1c[nH]c2ccccc12)NS(=O)(=O)c1ccc(-c2cc3ccccc3s2)s1`, in experiment [1], the GAG is given as 31.0. For the same compound, in experiment [2], the pIC50 was 7.50.
For `O=C(O)[C@H](Cc1ccccc1)NS(=O)(=O)c1ccc(-c2cc3ccccc3o2)s1`, in that order: 47.7 and 6.30.
The like results for `O=C(O)[C@@H](Cc1ccccc1)NS(=O)(=O)c1ccc(-c2cc3ccccc3s2)s1` were, in that order, 16.2 and 8.11.
